Shown are actives, neighbours in structure and some others; about 1.7% of the full set was active somewhere.
PTHR1 ag = PTHR1 (human) receptor agonism; HEK293 GP2 PTHR1 cells, GloSensor cAMP luminescence, 1 h; Potency, µM (doses to about 115 µM), actives largely listed as activators; hit rate 0.075% among 410,000; also: nearly all actives have a fitted effect of over 55% in size
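HEK-293-derived GP2 cells expressing PTHR1 and a GloSensor cAMP reporter, 3,000/well, plated overnight, given luciferin plus IBMX (each 0.5 mM as added) for 1 h at 37 °C, then compound for 1 h at 37 °C. Luminescence was read after 15 min at room temperature.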
HEK293 tox = cytotoxicity counter-screen for GLP-1 receptor inverse agonists; HEK293 cAMP-luciferase reporter cells, luminescence, 24 h; Potency, µM (titrated, usually from 38.3 µM), actives largely listed as inhibitors; hit rate 0.13% among 410,000;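 also: loss of luciferase light is scored as toxicity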
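Here, cytotoxicity is scored as loss of luminescence. The MLSMR collection was tested on cells seeded in medium containing 10% Nu serum, with a 24 hr compound exposure preceded by 12 hours of culture.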
miR-21 reporter = miR-21 reporter, rising signal | HeLa miR-21 FLuc reporter, luciferase, 48 h | Potency, µM (top dose mostly 38.3 µM) | 340,000 tested, under 10 active | AID 2288; active = well fitted rising curve with a large enough effect; inconclusive = small, poorly fitted or top-dose-only effect; inactive = no such curve, though single readings can be large or run the other way;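 further: miR-21 action dims this reporter so a rising signal means less miR-21 action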
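HeLa cells endogenously expressing miR-21, stably carrying CMV-driven firefly luciferase with a downstream miR-21 binding site, 2000 cells/well. Titrations up to approximately 40 uM, 48 hours; luciferase luminescence read.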
GLP-1R inv ag = acts as inverse agonist at human GLP-1 receptor. P43220. HEK293 GLP-1R CRE-luciferase, luminescence, 24 h; GLP-1R form is constitutively active. Potency, µM (titrated, usually from 38.3 µM), most hits filed as inhibitors. hit rate 1.6% among 410,000; also: nearly all actives have a fitted effect of over 55% in size
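qHTS in 1536-well format: reporter HEK293 cells expressing constitutive GLP-1R activity in DMEM + 10% Nu serum, 24 hr with compounds at 37 deg C, luminescence read after 12 min with detection reagent.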
GLP1R ag = activates the human GLP-1 receptor. HEK293 GLP-1R CRE-luciferase, luminescence, 4-6 h; cells express a hypersensitive GLP-1R form. Potency, µM (titrated, usually from 45.6 µM), most hits filed as activators. hit rate 0.007% among 380,000. AID 624172. P43220
Pin1 inhibitor = human Pin1 inhibition. Potency, µM (top dose mostly 115 µM), usual class: inhibitors. hit rate 0.009% among 390,000. Pin1 FP peptide displacement, HiFluor488, 10 min. Q13526; active = well fitted inhibition curve with a large enough effect in the polarisation, with a control signal flat, not every such curve was filed as active; inconclusive = small, poorly fitted or top-dose-only effect, or effect the other way, or a change in a side signal; inactive = no such curve, though single readings can be large or run the other way; the % refers to the polarisation
Hits are given with their value; 0 = inactive; ? = inconclusive; - = no result given; [ ] = another dose, or the depositor's remark. Unless noted, calls follow the shape of the dose curve; as a rule, active = well fitted curve in the direction sought with a large enough effect; inconclusive = small, poorly fitted or top-dose-only effect, or another doubt; inactive = no such curve, though single readings can be large; an effect the other way counts as inactive or inconclusive.

SMILES | PTHR1 ag | HEK293 tox | miR-21 reporter | GLP-1R inv ag | GLP1R ag | Pin1 inhibitor
Cc1c(Br)c([N+](=O)[O-])nn1CC(=O)N1CCc2ccccc2C1 | 0 | 0 | 0 | 0 | 0 | 0
Cc1c(Br)c([N+](=O)[O-])nn1CC(=O)N1CCN(C23CC4CC(CC(C4)C2)C3)CC1 | 0 | 0 | 0 | 10µM | 0 | ?
O=C(Nc1ccccc1C(=O)Nc1ccc(Br)cn1)c1ccccc1Cl | 0 | 0 | - | 10µM | 0 | 0
CCCC1CC(C)(c2csc(Nc3ccc(OCC)cc3)n2)OC1=O (stereo not given) | 0 | 0 | 0 | 11µM | 0 | 0
CC1SC(C)C(=O)N(CC(=O)Nc2ccc([N+](=O)[O-])cc2)C1=O (stereo not given) | 0 | 0[7.66 µM] | 0 | 0[7.66 µM] | 0 | 0
Cc1ccc(N2C(=O)N(CC(=O)Nc3cc(C)cc(C)c3)C(=O)C2C)cc1 (stereo not given) | 0 | 0 | 0 | 4µM | 0 | 0
Cc1ccc(N2C(=O)N(CC(=O)Nc3ccc(F)c(F)c3)C(=O)C2C)cc1 (stereo not given) | 0 | 0 | - | ? | 0 | 0
Cc1ccc(N2C(=O)N(CC(=O)Nc3ccc(C)c(C)c3)C(=O)C2C)cc1 (stereo not given) | 0 | 0 | - | 10µM | 0 | 0
Cc1ccc(N2C(=O)N(CC(=O)Nc3ccc(C)cc3Cl)C(=O)C2C)cc1 (stereo not given) | 0 | 0 | - | ? | 0 | 0
Cc1ccc(N2C(=O)N(CC(=O)Nc3cc(Cl)ccc3C)C(=O)C2C)cc1 (stereo not given) | 0 | 0 | - | 10µM | 0 | 0
Cc1ccc(N2C(=O)N(CC(=O)Nc3ccc([N+](=O)[O-])cc3)C(=O)C2C)cc1 (stereo not given) | 0 | 0 | 0 | 11µM | 0 | 0
COc1cccc(-c2cn3c(n2)sc2cc(C(=O)NCc4ccccc4F)ccc23)c1 | 0 | 0 | 0 | 0 | - | 0
Cc1cc(C)c(C)c(S(=O)(=O)N2CCSCC2)c1C | 0 | 0 | 0 | 10µM | 0 | 0
Cc1c(C)c(C)c(S(=O)(=O)N2CCSCC2)c(C)c1C | 0 | ? | 0 | 0 | 0 | 0
CCN(CC)c1nc2ccccc2c(N)c1-c1ccccc1 | 0 | 0 | 0 | 2.5µM | 0 | 0
COc1cc(OC)c(NC(c2nnc(-c3ccccc3)o2)c2ccc(F)cc2Cl)cc1Cl (stereo not given) | 0 | 0 | 0 | ? | - | 0
CCc1cccc(NC(c2nnc(-c3ccccc3)o2)c2ccc(F)cc2Cl)c1 (stereo not given) | 0 | 0 | 0 | 6.3µM | - | 0
COc1ccccc1CNc1ccc(-c2nc(C)no2)cc1[N+](=O)[O-] | 0 | 0 | 0 | ? | - | 0
COc1ccc(CCNC(=O)C2CCC(C(C)(C)C)CC2)cc1OC (stereo not given) | 0 | 0 | 0 | 10µM | 0 | 0
COc1ccc(CCNC(=O)C2CC2)cc1OC | 0 | 0 | 0 | 0 | 0 | 0
CC1CCN(CCCNC(=O)c2cc(Sc3ccc(F)cc3)nc3ccccc23)CC1 | 0 | 0 | 0 | ? | - | 0
c1ccc(CN2CCC(Nc3nc(-c4cccs4)nc4ccccc34)CC2)cc1 | 0 | ? | 0 | 7.1µM | 0 | 0
COc1cc2c(c(OC)c1OC)-c1c(cc3c(c1OC)OCO3)C[C@@H](C)[C@](C)(O)C2 | - | - | - | - | 0 | -
CC1C/C(=C/c2cccn2C)C(=O)/C(=C/c2cccn2C)C1 (stereo not given) | 0 | 0 | 0 | 13µM | 0 | ?
O=C(C=C=Nc1ccccc1)C(=O)N=C=Cc1ccccc1 | 0 | 13µM | ? | ? | 0 | ?
COC(=O)c1ccc2nc(-c3cccc(N)c3)cn2c1 | 0 | 0 | 0 | 5.6µM | 0 | 0
COc1ccc(C(CNC(=O)COc2ccc(Br)cc2F)N2CCCC2)cc1 (stereo not given) | 0 | 0 | 0 | 13µM | 0 | 0
COc1ccc(NS(=O)(=O)c2ccc(O)c(NC(=O)c3ccc(S(=O)(=O)N4CCCCCC4)cc3)c2)cc1 | 0 | 0 | 0 | 0 | 0 | 0

Screens as filed in PubChem.
